According to the NIST ThermoML archive (doi:10.1021/je060117o):

Conditions: Liquid, Other PVT measurement

CCl [chloromethane]
specific volume [m3/kg]
Conditions | 298 K | 323 K | 348 K | 373 K | 423 K | 473 K | 523 K | 573 K
10000 kPa | 0.001066 | 0.001131 | 0.001201 | 0.001301 | 0.00173 | 0.004468 | 0.006442 | 0.007881
20000 kPa | 0.001047 | 0.0011 | 0.001159 | 0.001233 | 0.001466 | 0.001858 | 0.002586 | 0.003417
30000 kPa | 0.00103 | 0.001079 | 0.001131 | 0.001187 | 0.00135 | 0.00156 | 0.0019 | 0.002317
40000 kPa | 0.001012 | 0.001059 | 0.001103 | 0.001155 | 0.001279 | 0.00144 | 0.001652 | 0.001928
50000 kPa | 0.0009994 | 0.001043 | 0.001083 | 0.001128 | 0.001234 | 0.001361 | 0.001504 | 0.001697
75000 kPa | 0.0009752 | 0.00101 | 0.001043 | 0.001083 | 0.00116 | 0.00125 | 0.001344 | 0.001457
100000 kPa | 0.0009545 | 0.0009852 | 0.001016 | 0.001048 | 0.001114 | 0.001183 | 0.001261 | 0.001347
125000 kPa | 0.0009395 | 0.0009622 | 0.0009892 | 0.001019 | 0.001075 | 0.001135 | 0.001199 | 0.001277
150000 kPa | 0.0009237 | 0.0009449 | 0.0009696 | 0.0009963 | 0.001048 | 0.0011 | 0.001153 | 0.001221
175000 kPa | 0.0009102 | 0.0009316 | 0.0009533 | 0.0009771 | 0.00102 | 0.001069 | 0.001117 | 0.001178
200000 kPa | 0.0009001 | 0.0009178 | 0.000937 | 0.000959 | 0.001 | 0.001043 | 0.001088 | 0.001145
225000 kPa | 0.0008905 | 0.0009076 | 0.0009251 | 0.0009441 | 0.0009818 | 0.001021 | 0.001066 | 0.001115
250000 kPa | 0.000881 | 0.0008978 | 0.0009147 | 0.0009328 | 0.0009678 | 0.001004 | 0.001043 | 0.001086
275000 kPa | 0.0008704 | 0.000887 | 0.000903 | 0.00092 | 0.0009519 | 0.0009865 | 0.00102 | 0.001063
300000 kPa | 0.0008631 | 0.0008777 | 0.0008942 | 0.0009104 | 0.0009409 | 0.0009729 | 0.001004 | 0.001047
325000 kPa | 0.0008544 | 0.0008694 | 0.0008839 | 0.0008995 | 0.0009295 | 0.0009587 | 0.000989 | 0.001028
350000 kPa | 0.0008484 | 0.0008622 | 0.0008766 | 0.0008906 | 0.0009167 | 0.000947 | 0.0009755 | 0.001012
375000 kPa | 0.0008408 | 0.0008542 | 0.000867 | 0.000881 | 0.0009064 | 0.0009357 | 0.0009626 | 0.0009929
400000 kPa | 0.0008366 | 0.0008474 | 0.00086 | 0.0008736 | 0.0008963 | 0.0009239 | 0.0009483 | 0.0009763
